Reference: the Kinase Knowledgebase extract (Sharma et al. 2016)

Protein sequences, listed by entry. Tags and fused reporters are not part of them.
UniProt Q16539, whole entry, looked up: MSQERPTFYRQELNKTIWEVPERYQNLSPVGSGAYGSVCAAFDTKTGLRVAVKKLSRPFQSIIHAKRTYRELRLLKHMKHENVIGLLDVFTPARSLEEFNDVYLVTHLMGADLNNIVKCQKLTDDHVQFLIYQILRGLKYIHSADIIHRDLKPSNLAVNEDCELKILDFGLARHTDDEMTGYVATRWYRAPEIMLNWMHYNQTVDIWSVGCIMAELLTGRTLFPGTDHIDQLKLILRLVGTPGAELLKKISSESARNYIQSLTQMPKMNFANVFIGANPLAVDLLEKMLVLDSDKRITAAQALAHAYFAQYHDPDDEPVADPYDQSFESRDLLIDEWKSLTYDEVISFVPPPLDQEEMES

molecular target: MAPK14 (UniProt Q16539); test: Enzyme Assay

Q: With `Nc1ncccc1OCc1cccc2ccccc12` as the compound, how does the IC50 read?
A: Its IC50 is less than 200 µM.

Q: With `CC(C)(CO)Nc1ccc(OCc2c(Cl)cccc2Cl)cn1` as the compound, how does the IC50 read?
A: Its IC50 is less than 200 µM.

Q: `OCCNc1ccc(OCc2c(Cl)cccc2Cl)cn1` was tested. Which IC50 did it give?
A: The IC50 was less than 200 µM.

Q: For `c1ccc(COc2cccnc2)cc1`, which IC50 is on record?
A: Its IC50 is less than 2000 µM.
